## Ab-14 light chain CDR variants: yeast mating affinities

From the AlphaSeq antibody data of Engelhart et al. 2022 (doi:10.1038/s41597-022-01779-4), copy in the FLAb collection.

The target is the same throughout: PDVDLGDISGINAS, from the HR2 region of SARS-CoV-2 spike.

Parent: Ab-14, a human scFv built as VH, three GGGGS repeats, VL. Only the CDRs of the light chain vary.
VH: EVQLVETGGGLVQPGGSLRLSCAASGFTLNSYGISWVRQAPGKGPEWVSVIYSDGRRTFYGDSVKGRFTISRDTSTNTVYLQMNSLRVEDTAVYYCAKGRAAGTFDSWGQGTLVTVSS
VL: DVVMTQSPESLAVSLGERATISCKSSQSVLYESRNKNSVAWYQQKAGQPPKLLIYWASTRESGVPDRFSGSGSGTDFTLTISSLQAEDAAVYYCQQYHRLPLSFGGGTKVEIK

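Phage display of a naive human antibody library on the peptide gave the parent. Variants in AAYL50 differ from the parent at up to three CDR positions; double and triple changes were sampled at random. The assay is AlphaSeq: two haploid yeast populations carry antibody and antigen on their surface. Pairs that bind mate more often; barcode pairs of the diploids are counted by sequencing. The ratio of observed to expected reads was calibrated, replicate by replicate, on BCL2-family standards whose Kd was known from biolayer interferometry. There are three technical replicates.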

Substitutions are numbered in sequence along the VL above, starting at 1 (not Kabat). Affinities are written as log10 Kd with Kd in nM; a lower number is a better binder. Averages over replicates are reported, and they cover detected replicates only. A pair that was not seen in that replicate is written "nd"; this usually means weak binding, but a binder can also be missed. Empty control strains, which show no peptide, gave a signal in 18% of pairings with library AAYL50; the median was 4.19 and 95% of these signals were weaker than 2.99. No background was subtracted. Also given: how often the same scFv was detected with the empty control strains.

For L30I+L100K, the assay gave 2.18, 2.11, 2.04 (mean 2.11; controls 2 of 9).
For R99H+L100S+S103P, the assay gave 1.60, 1.47, 1.70 (mean 1.59; controls 1 of 9).
For T59S+Y97V+P101S, the assay gave 5.22, nd, 4.65 (mean 4.93; controls 1 of 9).
For S58M+T59M, the assay gave 1.41, 1.67, 1.67 (mean 1.58; controls 2 of 9).
For R34L+K36A+S58Y, the assay gave 0.88, 0.91, 0.79 (mean 0.86; controls 0 of 9).
For E61D+Q95A+P101V, the assay gave nd, nd, 5.12 (controls 3 of 9).
For K24R+Y31D+S38C, the assay gave 3.95, 2.87, nd (mean 3.41; controls 3 of 9).
For S28D+R34W+P101G, the assay gave 1.56, 1.45, 1.77 (mean 1.59; controls 5 of 9).
For S33T+S58A+S62C, the assay gave nd, nd, nd (controls 1 of 9).
For S28E+Y97T+L102G, the assay gave 0.71, 0.83, 0.71 (mean 0.75; controls 1 of 9).
For S26A+Q95T+L102Y, the assay gave nd, nd, nd (controls 1 of 9).
For S62K+H98D+L100G, the assay gave 6.31, 4.76, 5.12 (mean 5.40; controls 7 of 9).
For Q27P+N35T+N37L, the assay gave nd, 3.59, nd (controls 1 of 9).
For Y31S+S33G+L102W, the assay gave 1.70, 1.91, 1.78 (mean 1.80; controls 0 of 9).
For S58H+R60I+P101N, the assay gave 5.70, nd, nd (controls 2 of 9).
For Q27C+T59G+P101K, the assay gave nd, nd, nd (controls 0 of 9).
For S25Q+V29P+H98V, the assay gave 0.84, 1.15, 0.94 (mean 0.98; controls 2 of 9).
For E61P+S62P+Y97D, the assay gave 4.08, 5.00, 5.89 (mean 4.99; controls 6 of 9).
For S26M+L102M+S103E, the assay gave 2.75, 5.14, 3.65 (mean 3.85; controls 5 of 9).
For W56Q+T59K+Y97I, the assay gave 2.52, 2.18, 1.80 (mean 2.17; controls 4 of 9).
For R34F+N35W+A57Q, the assay gave 5.66, 3.85, 3.94 (mean 4.48; controls 1 of 9).
For K24C+L30T+R60C, the assay gave nd, nd, nd (controls 2 of 9).
For S26V+V29P+N35V, the assay gave nd, nd, 5.99 (controls 4 of 9).
For N37P+Q96M+L102C, the assay gave 4.91, 3.16, nd (mean 4.03; controls 3 of 9).
For Y97P+S103R, the assay gave 3.40, nd, nd (controls 1 of 9).
For Q27W+E32P+A40E, the assay gave nd, nd, nd (controls 1 of 9).
For N35V+V39A+S62W, the assay gave nd, nd, nd (controls 1 of 9).
For S62Y+Q95C+R99G, the assay gave nd, nd, 6.25 (controls 4 of 9).
For N35T+T59K+Q96M, the assay gave 5.16, 3.12, nd (mean 4.14; controls 5 of 9).
For K24W+Q27Y+N37G, the assay gave nd, nd, nd (controls 0 of 9).
For S28R+L30P+S33Q, the assay gave 0.97, 1.16, 1.03 (mean 1.05; controls 3 of 9).
For S26Y, the assay gave 1.24, 1.41, 1.44 (mean 1.36; controls 5 of 9).
For K24R+S38H+S62H, the assay gave 2.92, 2.09, 2.73 (mean 2.58; controls 1 of 9).
For Y97E+H98V+P101R, the assay gave nd, nd, nd (controls 4 of 9).
For Q27H+S28W+E61L, the assay gave 1.03, 1.13, 1.37 (mean 1.18; controls 0 of 9).
For W56R+E61V+H98R, the assay gave 3.76, 2.81, 2.79 (mean 3.12; controls 0 of 9).
For K36A+N37W+S62P, the assay gave nd, nd, nd (controls 1 of 9).
For S28E+K36R+E61N, the assay gave 1.10, 1.08, 0.89 (mean 1.02; controls 0 of 9).
For S62E+R99T+S103D, the assay gave 0.33, 0.58, 0.49 (mean 0.46; controls 3 of 9).
For S28P+Y31N+S58D, the assay gave 0.36, 0.79, 0.70 (mean 0.62; controls 6 of 9).
For Y31S+Q96A+P101I, the assay gave 0.46, 0.87, 0.57 (mean 0.63; controls 2 of 9).
For Q27N+N37S+H98T, the assay gave 2.63, 2.26, 2.50 (mean 2.46; controls 1 of 9).
For S33N+N37T+S38M, the assay gave nd, 4.15, nd (controls 5 of 9).

6 of these entries, quoted again:

{"changes": "S26A+Q95T+L102Y", "log10 Kd (nM) by replicate": "nd, nd, nd", "log10 Kd (nM), mean": "nd", "empty controls": "1 of 9"}
{"changes": "W56R+E61V+H98R", "log10 Kd (nM) by replicate": "3.76, 2.81, 2.79", "log10 Kd (nM), mean": "3.12", "empty controls": "0 of 9"}
{"changes": "Q27N+N37S+H98T", "log10 Kd (nM) by replicate": "2.63, 2.26, 2.50", "log10 Kd (nM), mean": "2.46", "empty controls": "1 of 9"}
{"changes": "S28E+Y97T+L102G", "log10 Kd (nM) by replicate": "0.71, 0.83, 0.71", "log10 Kd (nM), mean": "0.75", "empty controls": "1 of 9"}
{"changes": "S28P+Y31N+S58D", "log10 Kd (nM) by replicate": "0.36, 0.79, 0.70", "log10 Kd (nM), mean": "0.62", "empty controls": "6 of 9"}
{"changes": "R34L+K36A+S58Y", "log10 Kd (nM) by replicate": "0.88, 0.91, 0.79", "log10 Kd (nM), mean": "0.86", "empty controls": "0 of 9"}

In this assay the parent's reference entry averaged 0.65; its copy inside this library read 1.68.